From EP4834896A1, “QUATERNARY AMMONIUM COMPOUND AND PHARMACEUTICAL USE THEREOF” (dated 2026) come the findings set out here.

Series [1] deals with SD rats. Kind of series: Pharmacodynamic test (Test Example 1): neuromuscular blockade, sciatic nerve-gastrocnemius muscle tension in anesthetized rats. As to conditions: drug dose causing 95% neuromuscular blockade; male SD rats, injection via jugular vein; non-linear regression of log dose vs % inhibition of muscle tension. Here is the method: Samples: Compound 4, Compound 5, Control Compound 1, and Control Compound 2, all prepared in physiological saline.
(§1) SD rats (source: Beijing Hfk Bioscience Co., Ltd), male, weighing 200-350 g before the experiment, maintained under a 12-h light/dark cycle, and housed in SPF conditions.
(§2) • 1) The rats were weighed. Ethyl carbamate was prepared as a 25% urethane solution and injected intraperitoneally at 1 mL/100 g for anesthesia. After the animals lost consciousness and reflexes, each rat was fixed in a prone position on a foam board, and the right hindlimb area was depilated. The trachea and external jugular veins were dissected, followed by tracheal intubation and venous cannulation, respectively, and an artificial ventilator was prepared. • 2) Posterior to the hip joint, an incision was made in the skin over the lateral edge of the femur at the mid-thigh level. Muscles were bluntly dissected using a glass dissecting needle to expose the sciatic nerve. The skin of the lower leg was incised at the ankle joint, the anterior ligament of the ankle joint was transected, and the gastrocnemius muscle was isolated. […] The muscle tension curve was recorded. • 4) After the signals stabilized, different doses of the test compounds were injected via the jugular vein, and the inhibition of muscle tension after administration was recorded. […]

The next series has as its system histamine release. The series is described as follows: Histamine release assay (Test Example 5): plasma histamine before and after i.v. administration, LC-MS/MS. The conditions noted are these: rat plasma histamine after / before administration; 20 mg/kg intravenous, blood 1 min after administration; * P < 0.05. Here is the method:
(§3) Samples: Compound 5B, Compound 15, and Control Compound 3, all prepared in physiological saline.
as §1
• 1) The rats were weighed. Ethyl carbamate was prepared as a 25% urethane solution and injected intraperitoneally at 1 mL/100 g for anesthesia. After the animals lost consciousness and reflexes, each rat was fixed in a prone position on a foam board, and the right hindlimb area was depilated. One jugular vein was cannulated for drug injection, and the other jugular vein was cannulated for blood collection. • 2) After stabilization for 15 min, 0.5 mL of venous blood was collected into an EP tube containing heparinized physiological saline (1 : 9), mixed well, cooled, and centrifuged at 1000 rpm for 10 min at 4°C. 0.2 mL of the upper plasma layer was collected and cryopreserved in dry ice. After stabilization for 15 min, the test drug was injected intravenously at a dose of 20 mg/kg. […] 0.2 mL of the upper plasma layer was collected and cryopreserved in dry ice. • 3) After processing the above plasma samples, the histamine content in the rat plasma before and after administration was determined by LC-MS/MS. […]

Series [2] concerns SD rats. The series is described as follows: Pharmacodynamic test (Test Example 3): neuromuscular blockade, sciatic nerve-gastrocnemius muscle tension in anesthetized rats. As to conditions: drug dose causing 95% neuromuscular blockade; male SD rats, injection via jugular vein; linear regression of log dose vs probit of % inhibition of muscle twitch. Here is the method:
Samples: Compound 5A, Compound 5B, and Control Compound 3, all prepared in physiological saline.
as §1
as §2, with “doses of different test compounds” for “doses of the test compounds”

For series [3], the system named is SD rats. Kind of series: Pharmacodynamic test (Test Example 4): inhibition of muscle tension at a single dose in anesthetized rats. The conditions noted are these: 0.3 mg/kg via jugular vein, male SD rats, gastrocnemius muscle tension. Here is the method: as §3, §1
• 1) The rats were weighed. Ethyl carbamate was prepared as a 25% urethane solution and injected intraperitoneally at 1 mL/100 g for anesthesia. After the animals lost consciousness and reflexes, each rat was fixed in a prone position on a foam board, and the right hindlimb area was depilated. The trachea and external jugular veins were dissected, followed by tracheal intubation and venous cannulation, respectively, and an artificial ventilator was prepared. • 2) Posterior to the hip joint, an incision was made in the skin over the lateral edge of the femur at the mid-thigh level. Muscles were bluntly dissected using a glass dissecting needle to expose the sciatic nerve. The skin of the lower leg was incised at the ankle joint, the anterior ligament of the ankle joint was transected, and the gastrocnemius muscle was isolated. The tendon of the gastrocnemius muscle at the ankle was ligated, and the tendon was transected distal to the ligature. • 3) A biological function experimental system was used to collect and record signals. […]

On to `COc1ccc(C[C@@H]2c3cc(OC)c(OC)cc3CC[N@@+]2(C)CCCOC(=O)/C=C/C(=O)OCCC[N+](C)(C)Cc2ccccc2)cc1`, for which the ED95 in the series on SD rats [1] is 0.93 mg/kg.

`COc1ccc(C[C@@H]2c3cc(OC)c(OC)cc3CC[N@@+]2(C)CCCOC(=O)/C=C/C(=O)OCCC[N+]2(Cc3ccc(OC)c(OC)c3)CCOCC2)cc1`: in the series on histamine release, the Histamine increase fold entry is “About 3.0*”. The compound further returned an ED95 with SD rats [2] of 0.56 mg/kg. Moreover, the “Muscle tone inhibition %” value in the series with SD rats [3] was 45.77%.
